Consider two compounds from PubChem BioAssay AID1345082 (National Center for Advancing Translational Sciences (NCATS), 2018).

The structures appear in SMILES notation. The list shows a part of the results, in another mix than the full data. Inconclusive results are not listed. The source made the active and inactive calls. The call rests on the fitted dose curve; in most records, active means well fitted inhibition curve with a large enough effect; inconclusive means small, poorly fitted or top-dose-only effect; inactive means no such curve, though single readings can be large or run the other way.
On the % scale 0 is the no-effect control and ±100 the full control effect.

This experiment is described as follows: Cytotoxic Profiling in NIH 3T3 Cell Line of Diverse Libraries Using Quantitative High-Throughput Screening. Further: nearly all actives have a fitted effect of over 55% in size. The note with it: NIH 3T3 viability, CellTiter-Glo ATP luminescence, 48-72 h; at 174 µM (top of the series) unless noted. An excerpt: Cell-based phenotypic screening is a commonly used approach to discover biological pathways, novel drug targets, chemical probes and high-quality hit-to-lead molecules. Many hits identified from high-throughput screening campaign are ruled out through a series of follow-up potency, selectivity/specificity, and cytotoxicity assays. Prioritization of molecules with little or no cytotoxicity for a more in-depth downstream evaluation influence the future direction of projects, so cytotoxicity profiling of the screening libraries at early stage is essential for increasing the likelihood of candidate success. In this study, we analyzed results from a cell-based cytotoxicity screening campaign, comprising nearly 10,000 compounds in NCATS annotated libraries, and over 100,000 compounds in a diversity library, evaluated in four normal cell lines (HEK 293, NIH 3T3, CRL-7250 and HaCat) and a cancer cell line (KB 3-1, a HeLa subline) with overall screening outcomes, hit rates, pan-activity and selectivity. […]
NIH 3T3 cells were seeded into white 1536-well plates using a Multidrop Combi peristaltic dispenser (ThermoFisher, Waltham, MA) at a density of 400 cells/well in 5 uL of medium respectively. […] Plates were left at room temperature for 10 min before imaging the ATP-coupled luminescence using a ViewLux microplate imager (PerkinElmer, Waltham, MA).
Background: In ATP-based viability assays light output follows the ATP content of the culture.
Consider `CNCc1cc2ccccc2o1`, for which the activity change, negative = cytotoxicity is inactive: -5.69% [at 138 µM].

Turning to `CNCc1cccc(C)n1`, the activity change, negative = cytotoxicity is inactive: 1.37%.
